These results are taken from ChEMBL document CHEMBL5500420, “Discovery of BI-9508, a Brain-Penetrant GPR88-Receptor-Agonist Tool Compound for In Vivo Mouse Studies” (J Med Chem, 2024).

Assay [1] is filed under the species Mus musculus. As to the kind of experiment: Effect on [35S]-GTPgammaS binding activity in GPR88 knockout mouse striatal membrane incubated for 1 hrs in presence of GDP by liquid scintillation counter. The settings on record: Striatum. The format is functional, organism-based.
For assay [2], the system named is Medium spiny neuron. As to the kind of experiment: Reduction in cortical stimulation mediated evoked EPSC amplitude in mouse dorsal striatum Medium spiny neurons at 5 uM by whole cell patch clamp recording. Type of assay: functional, cell-based. Conditions: time 5-25 min.
Assay [3] has as its system Medium spiny neuron. As to the kind of experiment: Effect on paired-pulse ratio in mouse dorsal striatum Medium spiny neurons at 5 uM incubated for 5 to 25 mins by whole cell patch clamp recording. Type of assay: functional, cell-based. Conditions: time 5-25 min.
Assay [4] relates to Medium spiny neuron. As to the kind of experiment: Enhancement of local intrastriatal stimulation evoked peak inhibitory post-synaptic current in mouse dorsal striatum Medium spiny neurons at 5 uM by whole cell patch clamp recording. Type of assay: functional, cell-based. The settings on record: time 5-25 min.
The test system of assay [5] is Mus musculus. As to the kind of experiment: Reduction in spontaneous locomotor activity in wildtype mouse at 10 to 100 mg/kg, ip measured over 60 mins. Type of assay: functional, organism-based. Conditions: dose 10-100 mg/kg.
For assay [6], the system named is Mus musculus. As to the kind of experiment: Reduction in spontaneous locomotor activity in GPR88 knockout mouse at 10 to 100 mg/kg, ip measured over 60 mins. The settings on record: dose 10-100 mg/kg. Type of assay: functional, organism-based.
Assay [7] concerns Mus musculus. As to the kind of experiment: Reversal of morphine-induced hyperlocomotion in wildtype mouse assessed as decrease in distance travelled at 10 to 30 mg/kg, ip measured after 15 mins. Type of assay: functional, organism-based. Conditions: dose 10-30 mg/kg.
For assay [8], the system named is Mus musculus. As to the kind of experiment: Reversal of morphine-induced hyperlocomotion in GPR88 knockout mouse assessed as decrease in distance travelled at 10 to 30 mg/kg, ip measured after 15 mins. The settings on record: dose 10-30 mg/kg. Type of assay: functional, organism-based.
The subject of assay [9] is Mus musculus. As to the kind of experiment: Reversal of morphine-induced hyperlocomotion in wildtype mouse assessed as decrease in distance travelled at 30 mg/kg, ip measured after 120 mins. Type of assay: functional, organism-based.

Molecules are shown by their SMILES. Calls of active or inactive are those of the source. No cut-off for these calls is given here.

Take `COc1cc(-c2ccc(OC(C)C)cc2)ccc1N(C[C@@H](N)[C@@H](C)OC)C(=O)[C@@H]1C[C@H]1c1ccncn1`: the outcome in [1], in [3], in assay [6] and in [8] was inactive. The Activity result in [2] and in [4] was “Tde” throughout. Further, the result in [5], in assay [7] and in assay [9] was Active.
